Structures can show the parent of a compound that is named as a salt.
Biological target: human NK1R (Homo sapiens, UniProt P25103)
Assay: biochemical
Assay type: binding
Conditions: displacement of 125I-substance P; human NK1R in COS or CHO cells
Description: To express the cloned human neurokinin-1-receotor (NK1R) transiently in COS, the cDNA for the human NK1R was cloned into the expression vector pCDM9 which was derived from pCDM8 (INVITROGEN) by inserting the ampicillin resistance gene (nucleotide 1973 to 2964 from BLUESCRIPT SK+ (trademark, […], La Jolla, Calif., U.S.A.)) into the Sac II site. Transfection of 20 ug of the plasmid DNA into 10 million COS cells was achieved by electroporation in 800 μl of transfection buffer (135 mM NaCl, 1.2 mM CaCl2, 1.2 mM MgCl2, 2.4 mM K2 HPO4, 0.6 mM KH2 PO4, 10 mM glucose, 10 mM N-2-hydroxyethyl-piperazine-N'-2-ethane sulphonic acid (HEPES) pH 7.4) at 260 V and 950 μF using the IBI GENEZAPPER (trademark IBI, New Haven, Conn., U.S.A.). The cells were incubated in 10% fetal calf serum, 2 mM glutamine, 100 U/ml penicillin-streptomycin, and 90% DMEM media (GIBCO, Grand Island, N.Y., U.S.A.) in 5% CO2 at 37° C. for three days before the binding assay.
To establish a stable cell line expressing cloned human NK1R, the cDNA was subcloned into the vector pRcCMV (INVITROGEN). Transfection of 20 ug of the plasmid DNA into CHO cells was achieved by electroporation in 800 μl of transfection buffer supplemented with 0.625 mg/ml Herring sperm DNA at 300 V and 950 μF using the IBI GENEZAPPER (IBI). The transfected cells were incubated. in CHO media [10% fetal calf serum, 100 U/ml penicillin-streptomycin, 2 mM glutamine, 1/500 hypoxanthinethymidine (ATCC), 90% IMDM media (JRH BIOSCIENCES, Lenexa, Kans., U.S.A.), 0.7 mg/ml G418 (GIBCO)] in 5% CO2 at 37° C. until colonies were visible. Each colony was separated and propagated. The cell clone with the highest number of human NK1R was selected for subsequent applications such as drug screening.
The binding assay of human NK1R expressed in either COS or CHO cells is based on the use of ^125 I-substance P (^125 I-SP, from DU PONT, Boston, Mass.) as a radioactively labeled ligand which competes with unlabeled substance P or any other ligand for binding to the human NK1R. […] The tubes were incubated at 4° C. or at room temperature for 1 hour with gentle shaking. The bound radioactivity was separated from unbound radioactivity by GF/C filter (BRANDEL, Gaithersburg, Md.) which was prewetted with 0.1% polyethylenimine. The filter was washed with 3 ml of wash buffer (50 mM Tris pH 7.5, 5 mM MnCl2, 150 mM NaCl) three times and its radioactivity was determined by gamma counter.

Chains of the proteins cited; added tags and fusions are not shown.
UniProt P25103, whole entry: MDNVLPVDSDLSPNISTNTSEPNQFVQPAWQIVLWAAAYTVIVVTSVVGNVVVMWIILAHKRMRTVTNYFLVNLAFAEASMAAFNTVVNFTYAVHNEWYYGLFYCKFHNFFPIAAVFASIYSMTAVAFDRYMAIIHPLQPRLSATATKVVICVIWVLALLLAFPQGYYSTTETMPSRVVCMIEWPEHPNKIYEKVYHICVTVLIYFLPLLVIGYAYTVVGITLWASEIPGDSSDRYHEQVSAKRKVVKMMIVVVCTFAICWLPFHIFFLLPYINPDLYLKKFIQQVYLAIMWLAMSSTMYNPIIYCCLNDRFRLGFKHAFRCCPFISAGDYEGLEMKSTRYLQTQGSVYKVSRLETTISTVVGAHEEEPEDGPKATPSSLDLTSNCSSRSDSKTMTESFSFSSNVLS

Compound | IC50 [nM]
NC(COCc1cc(C(F)(F)F)cc(C(F)(F)F)c1)C(c1ccccc1)c1ccccc1 (stereo not drawn) [Example 16, 2-Ammonium-1-((3,5-bis(trifluoromethyl)phenyl)methyloxy)-3,3-diphenylpropane oxalate salt] | 9
CN1CCN(C(=O)CNC(COCc2cc(C(F)(F)F)cc(C(F)(F)F)c2)C(c2ccccc2)c2ccccc2)CC1 (stereo not drawn) [Example 53, N-(1-((3',5'-Bis(trifluoromethyl)phenyl)methyloxy)-3,3-diphenylprop-2-yl)glycine N'-methylpiperazinide oxalate salt] | 5
NC(=O)CN(CC(N)=O)C(COCc1cc(C(F)(F)F)cc(C(F)(F)F)c1)C(c1ccccc1)c1ccccc1 (stereo not drawn) [Example 64, 2-(Bis((carboxamido)methyl)ammonium)-1-((3,5-bis(trifluoromethyl)phenyl)methyloxy)-3,3-diphenylpropane oxalate salt] | 5
NCCNC(COCc1cc(C(F)(F)F)cc(C(F)(F)F)c1)C(c1ccccc1)c1ccccc1 (stereo not drawn) [Example 35, 2-((2-Ammonium)ethylammonium)-1-((3,5-bis(trifluoromethyl)phenyl)methyloxy)-3,3-diphenylpropane bis oxalate salt] | 5
CNC(=O)CNC(COCc1cc(C(F)(F)F)cc(C(F)(F)F)c1)C(c1ccccc1)c1ccccc1 (stereo not drawn) [Example 59, 1-((3,5-Bis(trifluoromethyl)phenyl)methyloxy)-2-(((N-methylcarboxamido)methyl)amino)-3,3-diphenylpropane] | 1.5
CN(C)C(COCc1cc(C(F)(F)F)cc(C(F)(F)F)c1)C(c1ccccc1)c1ccccc1 (stereo not drawn) [Example 17, 2-Dimethylammonium-1-((3,5-bis-trifluoromethylphenyl)methyloxy)-3,3-diphenylpropane] | 5
